Measurements published in patent publication US6897032B1, “Method for detecting G- and V-agents of chemical warfare and their degradation products” (dated 2005).

Chains of the proteins cited; added tags and fusions are not shown. Lines headed by an entry give the natural chain unless they say otherwise; changes in a name come on top.
UniProt Q45087: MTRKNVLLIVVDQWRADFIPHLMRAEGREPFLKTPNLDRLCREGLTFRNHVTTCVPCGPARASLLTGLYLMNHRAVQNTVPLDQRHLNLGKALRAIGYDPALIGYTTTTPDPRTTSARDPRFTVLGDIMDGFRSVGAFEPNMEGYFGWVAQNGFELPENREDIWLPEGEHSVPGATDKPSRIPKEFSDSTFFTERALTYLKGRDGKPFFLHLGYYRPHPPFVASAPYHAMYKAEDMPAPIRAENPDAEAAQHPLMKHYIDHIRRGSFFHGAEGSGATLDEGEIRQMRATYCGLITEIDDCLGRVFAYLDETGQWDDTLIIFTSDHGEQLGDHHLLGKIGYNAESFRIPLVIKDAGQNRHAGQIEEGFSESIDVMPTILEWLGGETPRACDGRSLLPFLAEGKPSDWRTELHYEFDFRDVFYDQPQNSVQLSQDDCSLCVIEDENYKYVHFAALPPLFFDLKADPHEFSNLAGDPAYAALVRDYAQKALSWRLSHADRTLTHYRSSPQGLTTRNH

Target: phosphonate ester hydrolase enzyme (PEH) (Trinickia caryophylli, UniProt Q45087)
Experiment: PEH against chromogenic substrates, p-nitrophenol release monitored spectrophotometrically

For p-nitrophenyl phenylphosphonate, the “PEH degradation of chromogenic substrate (release of yellow p-nitrophenol)” value was “effective in degrading”.
